“And” between values parts separate entries of the source, which are not always exact repeats. Identical values can stand only once.
Target: elastase pancreatique (Sus scrofa, UniProt P00772)
Experiment: Diffusion of pancreatic elastase in an agarose gel containing insoluble orcein-stained elastin (lysis area)
Settings: individual wells, lecture à t0 + 4 jours, Concentration GAG 0.15, GPFA016A 1.0000, HO3 0.12

Sequences of proteins named here, by UniProt entry; tags and fusion partners are left off. Residues count along the entry.
UniProt P00772, 27-266 limits assumed: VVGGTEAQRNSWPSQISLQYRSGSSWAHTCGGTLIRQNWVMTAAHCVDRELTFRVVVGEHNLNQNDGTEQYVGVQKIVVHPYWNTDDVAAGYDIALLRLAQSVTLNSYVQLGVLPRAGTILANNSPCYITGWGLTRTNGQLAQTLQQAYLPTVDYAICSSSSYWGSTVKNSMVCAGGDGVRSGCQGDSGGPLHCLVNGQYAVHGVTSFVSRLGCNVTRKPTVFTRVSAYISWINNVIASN

Structure (SMILES): CCCCCCCCCCCCCCOCC(O)CNC(=O)CCCCCCCC(O)C(O)CCCCCCO (stereo not drawn)
- Diamètre 1: 8 mm^2
- Diamètre 2: 8 mm^2 and 7 mm^2 (3×)
- Surface (surface de lyse): 0.50 cm^2 and 0.44 cm^2 (3×)

Reference: patent EP0785952B1, “GRAFT CERAMIDE HAVING AN ANTI-ELASTASE PROPERTY” (dated 1996)
